Patent US20090239795A1

Target: human GLP-1 receptor (human) (UniProt P43220)
Assay: cell-based or functional assay

Q: For exendin-4 peptide, which EC50, cell-based cAMP assay is on record?
A: 6.6 pM
